Assay results from patent US8741915B2, “Dihydropyrimidin-2(1H)-one compounds as S-nitrosoglutathione reductase inhibitors” (N30 Pharmaceuticals, Inc., priority 2009, dated 2014).

The chains behind the UniProt entries cited, without tags or fusion partners. Where a name states a change or a piece, a line headed by the entry shows the natural chain unless it says otherwise.
UniProt P11766: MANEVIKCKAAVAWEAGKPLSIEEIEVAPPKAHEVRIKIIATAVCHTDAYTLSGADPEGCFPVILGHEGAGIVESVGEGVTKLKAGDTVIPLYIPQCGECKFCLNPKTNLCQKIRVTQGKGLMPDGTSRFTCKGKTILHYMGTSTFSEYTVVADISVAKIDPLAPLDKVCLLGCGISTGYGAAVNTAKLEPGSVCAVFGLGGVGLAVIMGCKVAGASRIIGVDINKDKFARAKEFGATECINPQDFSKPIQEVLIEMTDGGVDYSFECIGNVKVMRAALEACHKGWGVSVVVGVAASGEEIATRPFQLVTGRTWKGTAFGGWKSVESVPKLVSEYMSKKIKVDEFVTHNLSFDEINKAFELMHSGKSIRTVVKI

Biological target: GSNOR (Homo sapiens (Human), UniProt P11766)
Experiment: GSNOR assay (inhibition of GSNOR activity in vitro, change in 340 nm absorbance with GSNO/NADH)
Settings: GSNOR IC50, Table 1, racemates and separated enantiomers

CCOc1cc([C@@H]2NC(=O)NC(c3ccccc3)=C2c2ccsc2)cc([N+](=O)[O-])c1O [Example 6, (S)-4-(3-ethoxy-4-hydroxy-5-nitrophenyl)-6-phenyl-5-(thiophen-3-yl)-3,4-dihydropyrimidin-2(1H)-one]
IC50: 18 nM
